UUG fidelity: modulators of yeast start codon fidelity, primary screen, whole organism, S. cerevisiae, single point, plate reader | AID 602363, 2012 | actives 0.13% (n = 350,000) | activity score, % at 18.7 µM | S. cerevisiae UUG-firefly luciferase reporter, luminescence/redox ratio;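 active means replicate mean at a twofold rise or more, about +100% in these data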;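 further: firefly luciferase made from a UUG start codon reports start codon fidelity; reporter light over untreated wells divided by growth signal over untreated wells; some hits fall short of that in this replicate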
miR122 inh: miR-122 inhibition in Huh7 cells; Huh7 miR-122 Renilla luciferase sensor, 48 h; neutral wells = 0, positive control = 100; activation (reporter increase), % at 12.5 µM; hit rate 0.3% among 340,000;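 active means mean replicate activation score at least 90 and every replicate individually at or above 90; inconclusive means only one of the two criteria met; inactive means neither criterion met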;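 further: higher luciferase means less miR-122 activity so hits act as miR-122 inhibitors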
EWS-Fli inh: inhibitors of EWS/Fli oncoprotein transcriptional activity | A673 NR0B1-luciferase reporter, viability-normalised | inhibition, % at 12.6 µM | hit rate 0.67% among 350,000 | AID 651661;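 active means mean inhibition of at least 50% after viability correction, with every replicate also passing that limit; inconclusive means mean reaches 50% but only one of two replicates passes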;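 further: firefly luciferase signal divided by Alamar Blue viability fluorescence both relative to DMSO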
CFTR F508del cor: CFTR F508del correction in bronchial cells. activity (quench increase), % at 7.58 µM. CFBE cells, YFP halide quenching; stimulated with forskolin plus potentiator P3; % fluorescence drop versus neutral controls. hit rate 0.36% among 350,000. AID 720511;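 active means mean added fluorescence quench of at least 8% versus neutral control, with both replicates also reaching 8%; inconclusive means only one of the mean or replicate conditions met; inactive means mean below 8% and not both replicates reaching 8%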;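 further: cells transiently co-express mutant CFTR-F508del with the halide-sensitive YFP; corrector assay measuring rescue of mutant channel to the surface after 24 h compound exposure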
LGR2 antag: Drosophila LGR2 receptor signaling inhibition. HEK293 LGR2, CRE-luciferase, bursicon-stimulated, 4 h. inhibition, % at 9.99 µM. hit rate 0.35% among 380,000. AID 720647;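 active means drop in luminescence signal, shown as inhibition above about 50% in the replicate tests, limit read from the data, passing the limit was not always enough; inconclusive means probably only some replicates passing the limit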;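 further: agonist challenge used bursicon conditioned medium at about half maximal strength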
PglD DTNB: blocks C. jejuni PglD acetyltransferase activity; purified PglD enzyme, DTNB colorimetric CoA detection; inhibition, % at 12.5 µM; hit rate 0.098% among 360,000; in the data active means inhibition above about 16%, passing the limit was not always enough; inconclusive means no clear call, values can overlap the other calls
An asterisk follows results filed as active; u = inconclusive; x = not tested or not shown; [ ] = remark or other dose. Only some compounds are listed: those with a hit (about 1.3% of all), similar ones and a draw of the others.

compound | LGR2 antag | PglD DTNB | EWS-Fli inh | CFTR F508del cor | miR122 inh | UUG fidelity
COc1ccccc1CNC(=O)C[C@H]1C[C@H]2c3cc(NC(=O)Nc4ccc(C(F)(F)F)cc4)ccc3O[C@H]2[C@H](CO)O1 | -3 | 6 | 5 | -1 | 12[16.7 µM] | x
COc1ccccc1N(CC(=O)NC1CCCCC1)C(=O)CCC(=O)Nc1ccccn1 | x | 2 | x | x | 3 | -14
CC1(C)CCN2CCC(C)(C)c3c(O)ccc1c32 | 8 | 8 | 33 | 38* | x | -1
CCOc1cc(NC(=O)c2cccs2)c(OCC)cc1NC(=O)c1ccco1 | x | x | x | x | 3 | x
Cc1sc2ncnc(Sc3nnnn3-c3ccc(Cl)cc3)c2c1C | x | 5 | x | x | 4 | -13
c1ccc(-n2nnnc2Sc2ncnc3sc4c(c23)CCCC4)cc1 | 66* | 3 | x | x | -11 | -8
COc1ccc(N(CC(=O)Nc2cc(C)on2)S(=O)(=O)c2ccc(Cl)cc2)cc1 | x | 1 | x | x | -1 | -1
COc1ccc(N(CC(=O)Nc2cc(C)on2)S(=O)(=O)c2cc(C)ccc2C)cc1 | x | -2 | x | x | 232* | 2
Cc1cnc(C)c(N2CCC(C(=O)NCc3cccs3)CC2)n1 | x | -5 | x | x | 2 | -16
C/C=C/c1ccc2c(c1)O[C@@H](CN(C)C(=O)COC)[C@H](C)CN([C@@H](C)CO)S2(=O)=O | -10 | 3 | -9 | 1 | x | -8
Cc1cc(=O)oc2cc(OCC(=O)OCC(=O)Nc3ccc4ccccc4c3)ccc12 | 2 | -1 | x | x | -6 | -12
COc1ccc(S(=O)(=O)N[C@@H]2C=C[C@H](CC(=O)N3CCc4ccccc4C3)O[C@@H]2CO)cc1 | 1 | -2 | -4 | -1 | 8[16.7 µM] | 13
O=C(C#Cc1ccccc1)c1ccccc1 | 33 | -4 | 70* | -10 | 40 | -4
O=C(C#Cc1ccccc1)c1ccc([N+](=O)[O-])cc1 | x | -1 | x | x | -1 | -12
CSc1nnc(NC(=O)c2ccc3c(c2)OCO3)s1 | 67* | -1 | 62* | 0 | -5 | -18
O=C(CSc1nnc(NC(=O)c2ccc3c(c2)OCO3)s1)NCc1ccco1 | 60* | x | 27 | 0 | x | x
Cn1cnc(S(=O)(=O)N2C[C@@H](O)COC[C@H]3O[C@@H](CC(=O)NC4CCCC4)CC[C@@H]32)c1 | 3 | 10 | 4 | -3 | 127*[16.7 µM] | x
COc1ccc([C@@H]2[C@@H]3C(=O)N(C(C)(C)C)C(=O)[C@@H]3[C@]3(Cc4ccccc4)C(=O)N(c4ccc(C(F)(F)F)cc4)C(=O)N23)cc1 | 0 | -3 | -14 | 9.0* | -5 | 5
CC1=CN2C(=N)/C(=C/c3ccc([N+](=O)[O-])o3)C(=O)N=C2S1 | u | x | 56* | x | x | x
O=C(CCCn1cnc([N+](=O)[O-])n1)Nc1cccc(Cl)c1Cl | 8 | x | x | x | x | x
Cc1c(Cl)cccc1NC(=O)CCCn1cnc([N+](=O)[O-])n1 | 1 | -5 | 0 | -1 | 251* | -2
O=c1cc(-c2ccccc2)nc2cc(-c3ccc(F)cc3)[nH]n12 | x | 1 | 2 | -1 | 18 | -8
COc1cccc(-c2cc3nc(-c4ccccc4)cc(=O)n3[nH]2)c1 | -66 | 13 | 37 | 12* | x | -24
Cc1ccc(S(=O)(=O)N2CCOCC2)cc1NC(=O)CSc1ccccn1 | -15 | 10 | -1 | -1 | 7 | -11
Cc1ccc(S(=O)(=O)N2CCOCC2)cc1NC(=O)CSc1nnc(COc2ccccc2F)n1N | -6 | 2 | 0 | 28* | 0 | -15
OC(c1cc(C(F)(F)F)nc2c(C(F)(F)F)cccc12)C1CCCCN1 (configuration not stated) | 70* | -5 | 59* | 3 | -10 | -23
CCOc1ccc2nc(NC(=O)CSCC(=O)Nc3cc(C)on3)sc2c1 | -16 | 0 | 60* | 3 | -4 | -5
N#CC1=C(N)OC2=C(C(=O)CCC2)C1CCc1ccccc1 (configuration not stated) | x | 1 | x | x | -1 | 8
O=C(COc1ccc(Br)cc1Br)NC1CCCC1 | -58 | x | -45 | 4 | x | x
CC(C)NC(=O)NC(=O)COc1ccc(Br)cc1Br | 53* | x | -52 | x | x | x

Reprinted from the part before: three compounds, followed by the next part.
compound | LGR2 antag | PglD DTNB | EWS-Fli inh | CFTR F508del cor | miR122 inh | UUG fidelity
N#CC1=C(N)OC2=C(C(=O)CCC2)C1CCc1ccccc1 (configuration not stated) | x | 1 | x | x | -1 | 8
O=C(COc1ccc(Br)cc1Br)NC1CCCC1 | -58 | x | -45 | 4 | x | x
CC(C)NC(=O)NC(=O)COc1ccc(Br)cc1Br | 53* | x | -52 | x | x | x
Cc1cc(Br)ccc1NC(=O)CN(C)C(=O)C1CSC2(C)CCC(=O)N12 (configuration not stated) | -11 | -4 | -3 | -1 | -3 | -1
CC1(C)CC(=O)C=C(NC2=CC3OC(c4ccccc4)OCC3OC2=O)C1 (configuration not stated) | 86* | x | 0 | x | x | x
Cc1ccccc1NC1=CC(=O)CC(C)(C)C1 | -27 | -1 | x | x | 1 | -6
Nc1[nH]c(C(=O)c2ccccc2)c(-c2ccccc2C(F)(F)F)c1C(=O)NCCc1c[nH]c2ccccc12 | 19 | x | -21 | 9.8* | x | x
N=C1/C(=C\c2ccc(-c3cc(Cl)cc(Cl)c3)o2)C(=O)N=C2SC=C(c3ccccc3)N12 | 9 | -9 | x | x | -2 | -12
N=C1/C(=C/c2cccn2CCOc2ccccc2)C(=O)N=C2SC=C(c3ccccc3)N12 | 20 | -3 | 13 | 13* | 8 | -11
CN(C)CCOc1ccc2c(c1)C(=O)C(=Cc1ncc([N+](=O)[O-])n1C)C2 | 100* | -2 | 52* | -1 | -22 | -27
CCc1cc(OCCN(C)C)ccc1Cl | -1 | x | 3 | 0 | x | x
COc1ccc(Br)cc1CNCC1CCCO1 (configuration not stated) | 11 | 8 | -6 | -2 | 2 | -12
COc1cccc(C2(c3cccc(OC)c3)CC2C(=O)Nc2ccc(F)cc2)c1 (configuration not stated) | 13 | 2 | -45 | -2 | 108* | -7
COc1cccc(C2(c3cccc(OC)c3)CC2C(=O)Nc2ccccc2Cl)c1 (configuration not stated) | 23 | -1 | -52 | 3 | 67 | -10
Cc1nnc(SCC(=O)N2CCN(C(=O)c3ccco3)CC2)n1C | 3 | 3 | 1 | 1 | -8 | -17
CC(=O)CSc1nc2cc3c(cc2cc1C#N)OCCO3 | 61* | x | 24 | -1 | x | x
N#Cc1cc2cc3c(cc2nc1SCC(=O)N1CCCC1)OCCO3 | x | -1 | x | x | 3 | -9
CC1c2[nH]c3ccccc3c2C[C@H]2C(=O)N(CCO)CC(=O)N12 (some centres not stated) | 11 | -3 | 12 | -2 | -2 | 8
N#Cc1c(C#N)c(SSc2c(C#N)c(C#N)c(N)n2-c2ccccc2)n(-c2ccccc2)c1N | 2 | x | 51* | -1 | -8 | x
O=C(O)CCCc1ccc2c(c1)CCc1ccccc1-2 | -21 | -2 | 63* | 1 | x | -19
O=C(CCCc1ccccc1)NC1CC1 | 11 | x | x | x | x | x
NC1=C(Cl)C(=O)c2ccccc2C1=O | -12 | x | -14 | 2 | x | x
NC1=C(Cl)C(=O)c2ccc(S(N)(=O)=O)cc2C1=O | 105* | -2 | 65* | -4 | -3 | -84
CCCNC(=O)/C=C/c1ccc(S(=O)(=O)Nc2ccccc2OC)cc1 | 18 | 5 | -10 | 0 | 0 | 12

Two compounds picked at random from those above, as already listed:
compound | LGR2 antag | PglD DTNB | EWS-Fli inh | CFTR F508del cor | miR122 inh | UUG fidelity
O=C(O)CCCc1ccc2c(c1)CCc1ccccc1-2 | -21 | -2 | 63* | 1 | x | -19
CCc1cc(OCCN(C)C)ccc1Cl | -1 | x | 3 | 0 | x | x

Screening data as filed in PubChem BioAssay.
